Values quoted from earlier work as cited in US20110014255A1, “PHYTOSANITARY FORMULATION GENERATING NANOPARTICLES, METHOD FOR PREPARING NANOPARTICLES AND USE THEREOF” (priority 2006, published 2011).

Settings: % by weight

**Q.** For `CCCCOP(=O)(OCCCC)OCCCC`, which miscibility in water is on record?
**A.** 0.04%
